Yeast mating assay 1: variants of the scFv Ab-14

The measurements come from Engelhart et al. 2022 (doi:10.1038/s41597-022-01779-4) through the FLAb antibody collection.

The target is the same throughout: PDVDLGDISGINAS, from the HR2 region of SARS-CoV-2 spike.

The variants keep the heavy chain, the linker and the frameworks of Ab-14 (scFv order VH, the linker GGGGSGGGGSGGGGS, VL).
VH: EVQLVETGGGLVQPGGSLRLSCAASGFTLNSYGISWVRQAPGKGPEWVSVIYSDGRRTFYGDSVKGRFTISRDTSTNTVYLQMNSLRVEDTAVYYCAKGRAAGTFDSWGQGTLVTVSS
VL: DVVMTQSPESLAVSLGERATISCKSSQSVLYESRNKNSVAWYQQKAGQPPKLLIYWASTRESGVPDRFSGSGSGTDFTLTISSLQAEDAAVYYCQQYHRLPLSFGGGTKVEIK

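The parent was found by panning a naive human phage display library on the peptide. The library (AAYL50) carries one to three amino acid substitutions per variant, with no insertions or deletions. The assay is AlphaSeq: two haploid yeast populations carry antibody and antigen on their surface. The frequency of each diploid, read from paired DNA barcodes, reflects how well the two displayed proteins bind. Each replicate has its own calibration line, from reference interactions of the BCL2 family. Mating was done three times.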

Each variant is given by its three light chain CDRs, as the data file delimits them; those of the parent are KSSQSVLYESRNKNSVA, WASTRES, QQYHRLPLS.
This list gathers variants with a substitution at R34 (VL, numbered from residue 1).
Affinities are written as log10 Kd with Kd in nM; a lower number is a better binder.
A mean of the replicates is given; it leaves out those without a signal.
A pair that was not seen in any replicate is written "nd"; this usually means weak binding, but a binder can also be missed.
Nonspecific signal, from three strains lacking the peptide, appeared in 18% of pairings of library AAYL50, centred on 4.19 (5% of these signals below 2.99); values are not corrected for it. The control count says in how many pairings with the empty strains this scFv gave a signal.

With KSSQSVLYEYMNKNEVA | WASTRES | QQYHRLPLS the result was 2.56 (3 of 3 replicates; controls 0 of 9). The variant KCSQSVLYESPNKNSVA | WASTRES | QRYHRLPLS gave nd (0 of 3 replicates; controls 0 of 9). The variant KSSQSVLAESKNKNSVA | WASIRES | QQYHRLPLS showed 0.54 (3 of 3 replicates; controls 0 of 9). For KSSQSVLYESQNKWSVA | WASTREV | QQYHRLPLS, the assay gave 0.61 (3 of 3 replicates; controls 4 of 9). The variant KSSQSVLYESPNKNSVT | WASTRES | QQYHRLPLS gave nd (0 of 3 replicates; controls 0 of 9). With KSSQSVLYESHNKTSVA | WASTRES | QQYHRLPLS the result was nd (0 of 3 replicates; controls 2 of 9). The variant KSSQSVLYESPNKNSVA | WACTRES | QQYHRLPLS showed nd (0 of 3 replicates; controls 0 of 9). The variant KSSQSVLYESYNKNSVA | WQSTRES | QQYHRLPLW showed 2.12 (3 of 3 replicates; controls 0 of 9). For KSSQSVLYESTNKNSVA | WASTRES | QQYHRLPLS, the assay gave 0.32 (3 of 3 replicates; controls 1 of 9).

For KSSSLVLYESSNKNSVA | WASTRES | QQYHRLPLS, the assay gave 0.78 (3 of 3 replicates; controls 4 of 9). The variant KSSQSVLYESLNKNSVA | WASTRES | HDYHRLPLS gave 2.44 (3 of 3 replicates; controls 3 of 9). The variant KSSQSVAYESNNKNSVA | WASTRES | QQYHRLPLS showed 2.10 (3 of 3 replicates; controls 0 of 9). The variant KSSQSVLYESLNKNSVA | WASTRES | QQYHRLPLS showed 1.25 (3 of 3 replicates; controls 1 of 9). The variant KSSQSVLYESCEKNSKA | WASTRES | QQYHRLPLS showed nd (0 of 3 replicates; controls 1 of 9). With KSSQFVLYESINKNSVA | WASTRES | QQYHRLPLS the result was nd (0 of 3 replicates; controls 1 of 9). With KSSQSVLYESGNKNSVG | WASIRES | QQYHRLPLS the result was 2.21 (3 of 3 replicates; controls 2 of 9). The variant KSSQSVDYGSENKNSVA | WASTRES | QQYHRLPLS gave 0.72 (3 of 3 replicates; controls 0 of 9). For KSSQSVLYESYNKNSVA | WNSTRES | QQPHRLPLS, the assay gave 4.09 (1 of 3 replicates; controls 3 of 9).

For KSSQSVLMESVNKNSVA | WASTRES | QQYHRLPTS, the assay gave 0.54 (3 of 3 replicates; controls 2 of 9). The variant KSSQSVLYEAHNKNSVA | WASERES | QQYHRLPLS gave nd (0 of 3 replicates; controls 0 of 9). The variant KSSHSVLYESKNKNSVA | WASTRES | QQYHRLTLS showed 1.91 (3 of 3 replicates; controls 1 of 9). For KSSQSVLYKSENKNSVA | WASTRES | QKYHRLPLS, the assay gave 1.07 (3 of 3 replicates; controls 2 of 9). The variant KSSQSVLDESQNKNSVA | WASTRES | QRYHRLPLS showed 0.96 (3 of 3 replicates; controls 3 of 9). The variant KSSQSVLYESVNKNSVA | WASTREK | QLYHRLPLS showed 0.73 (3 of 3 replicates; controls 2 of 9). The variant KSSQSVLYTSWNKNSVA | FASTRES | QQYHRLPLS showed 4.27 (3 of 3 replicates; controls 0 of 9). With KCSQSVLYESGNKNSVA | WASTRES | QQYHRLPCS the result was 3.69 (1 of 3 replicates; controls 2 of 9). With KSSQKVLYESINKNSVA | WASTRES | QQYHRLKLS the result was nd (0 of 3 replicates; controls 2 of 9).

The variant KSSQSVLYESPNKNSVA | PSSTRES | QQYHRLPLS showed 3.57 (1 of 3 replicates; controls 0 of 9). For KSSQSVRYESKNKNSVA | WAKTRES | QQYHRLPLS, the assay gave 3.12 (3 of 3 replicates; controls 1 of 9). The variant KSSQSVLYESYLKNSVA | WASTRES | QQYIRLPLS gave 1.70 (3 of 3 replicates; controls 0 of 9). The variant KSSQSVLYESANKNSVA | WASTVCS | QQYHRLPLS gave 1.00 (3 of 3 replicates; controls 2 of 9). The variant KSSQSVMYESPNKNHVA | WASTRES | QQYHRLPLS showed 1.96 (3 of 3 replicates; controls 4 of 9). For KSSQSVLYESDNKNSVA | WASTRES | QQYHPLPLS, the assay gave 5.26 (1 of 3 replicates; controls 3 of 9).

Repeated from above, the 2 best binders with a signal in all replicates:

For KSSQSVLYESTNKNSVA | WASTRES | QQYHRLPLS, the assay gave 0.32 (3 of 3 replicates; controls 1 of 9).
For KSSQSVLMESVNKNSVA | WASTRES | QQYHRLPTS, the assay gave 0.54 (3 of 3 replicates; controls 2 of 9).